Measurements taken from ChEMBL document CHEMBL1131398, “First synthesis of alternating SATE-phosphotriester/phosphodiester prooligonucleotides on solid support” (Bioorg Med Chem Lett, 1998).

Experiments:
[1] = Half-life in the presence of pig liver esterase(PLE) was evaluated.; format: ADME, tissue-based, Sus scrofa; settings: in vivo
[2] = Lipophilicity of compound evaluated by HPLC retention time on reverse phase C18 column
[3] = Half-life in the presence of total cell extract(TCE) was evaluated.; format: ADME

Compound `Cc1cn([C@H]2C[C@H](OP(C)(=O)O)[C@@H](COP(C)(=O)O[C@H]3C[C@H](n4cc(C)c(=O)[nH]c4=O)O[C@@H]3COP(C)(=O)O[C@H]3C[C@H](n4cc(C)c(=O)[nH]c4=O)O[C@@H]3COP(=O)(OCCSC(=O)C(C)(C)C)O[C@H]3C[C@H](n4cc(C)c(=O)[nH]c4=O)O[C@@H]3COP(=O)(OCCSC(=O)C(C)(C)C)O[C@H]3C[C@H](n4cc(C)c(=O)[nH]c4=O)O[C@@H]3COP(=O)(OCCSC(=O)C(C)(C)C)O[C@H]3C[C@H](n4cc(C)c(=O)[nH]c4=O)O[C@@H]3COP(=O)(OCCSC(=O)C(C)(C)C)O[C@H]3C[C@H](n4cc(C)c(=O)[nH]c4=O)O[C@@H]3COP(=O)(OCCSC(=O)C(C)(C)C)O[C@H]3C[C@H](n4cc(C)c(=O)[nH]c4=O)O[C@@H]3COP(=O)(OCCSC(=O)C(C)(C)C)O[C@H]3C[C@H](n4cc(C)c(=O)[nH]c4=O)O[C@@H]3COP(C)(=O)O[C@H]3C[C@H](n4cc(C)c(=O)[nH]c4=O)O[C@@H]3COP(C)(=O)O[C@H]3C[C@H](n4cc(C)c(=O)[nH]c4=O)O[C@@H]3COP(C)(=O)O[C@H]3C[C@H](n4cc(C)c(=O)[nH]c4=O)O[C@@H]3CO)O2)c(=O)[nH]c1=O` (stereo partly drawn) has a T1/2 [1] of 35 min, a Retention time [2] of 60.5 min and a T1/2 [3] of 72 min.
